# This is a selection: effects in other tests are not listed, and their absence says nothing.
# Amino acid sequences for entries named in this document (tags omitted).
# UniProt P35372, whole entry: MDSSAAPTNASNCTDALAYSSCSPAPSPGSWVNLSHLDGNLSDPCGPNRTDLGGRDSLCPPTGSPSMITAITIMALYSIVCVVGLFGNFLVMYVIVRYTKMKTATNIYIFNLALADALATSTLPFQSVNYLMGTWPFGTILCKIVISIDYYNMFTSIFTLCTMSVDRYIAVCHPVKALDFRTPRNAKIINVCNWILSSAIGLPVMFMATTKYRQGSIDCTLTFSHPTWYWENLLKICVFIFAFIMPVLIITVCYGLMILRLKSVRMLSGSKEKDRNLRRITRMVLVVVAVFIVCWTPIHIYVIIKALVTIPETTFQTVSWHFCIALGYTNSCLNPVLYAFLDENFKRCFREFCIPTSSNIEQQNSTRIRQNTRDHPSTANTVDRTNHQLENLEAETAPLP
# UniProt P41143, whole entry: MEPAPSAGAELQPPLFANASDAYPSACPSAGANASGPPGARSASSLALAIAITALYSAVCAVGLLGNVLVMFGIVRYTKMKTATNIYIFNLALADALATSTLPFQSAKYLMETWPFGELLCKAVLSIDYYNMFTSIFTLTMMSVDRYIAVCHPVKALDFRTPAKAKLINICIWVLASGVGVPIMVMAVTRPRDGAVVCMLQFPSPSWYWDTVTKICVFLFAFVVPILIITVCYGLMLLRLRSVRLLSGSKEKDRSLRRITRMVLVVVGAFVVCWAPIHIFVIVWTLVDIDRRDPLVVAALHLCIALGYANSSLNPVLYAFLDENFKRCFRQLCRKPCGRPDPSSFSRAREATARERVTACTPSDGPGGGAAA
# UniProt P41145, whole entry: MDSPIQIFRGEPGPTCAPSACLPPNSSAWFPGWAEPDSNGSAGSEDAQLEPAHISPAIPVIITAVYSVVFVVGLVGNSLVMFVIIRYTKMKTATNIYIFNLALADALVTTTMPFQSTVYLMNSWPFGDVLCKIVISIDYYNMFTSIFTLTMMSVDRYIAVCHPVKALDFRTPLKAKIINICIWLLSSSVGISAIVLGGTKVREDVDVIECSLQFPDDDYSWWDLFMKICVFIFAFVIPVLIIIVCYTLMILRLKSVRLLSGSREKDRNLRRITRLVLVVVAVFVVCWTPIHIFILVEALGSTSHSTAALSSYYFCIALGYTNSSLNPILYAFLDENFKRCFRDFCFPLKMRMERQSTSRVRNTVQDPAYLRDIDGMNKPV
# Legend:
# Experiment in all cases: […]GTPγS binding stimulation, CHO membrane homogenates
# [1] = molecular target: hMOR (mu-opioid receptor) (Homo sapiens, UniProt P35372); settings: read-out: MOR / EC50; agonist mode; pH 7.4, 100 mM NaCl, 5 mM MgCl2, 30 μM GDP, 25 °C, 60 min; HCl salt
# [2] = molecular target: hDOR (delta-opioid receptor) (Homo sapiens, UniProt P41143); settings: read-out: DOR / EC50; agonist mode; pH 7.4, 100 mM NaCl, 5 mM MgCl2, 30 μM GDP, 25 °C, 60 min; HCl salt
# [3] = molecular target: hKOR (kappa-opioid receptor) (Homo sapiens, UniProt P41145); settings: agonist mode; pH 7.4, 100 mM NaCl, 5 mM MgCl2, 30 μM GDP, 25 °C, 60 min; HCl salt
substance,measurement,setting,value
"(5α,6R,7R,14α)-2′-(17-Cyclopropylmethyl-4,5-epoxy-7,8-dihydro-3-hydroxy-6-methoxy-7β-methyl-6,14-ethano-morphinan-7-yl)-propan-2′-ol",EC50,[1],99.3 nM
same,EC50,[2],11.1 nM
same,EC50,[3],> 10000 nM

# Reference: paper PMC9634796, “Opioid Antagonists from the Orvinol Series as Potential Reversal Agents for Opioid Overdose” (2022)
